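48-hour exposure; five concentrations; linearly interpolated endpoints. GI50 marks 50% less growth. TGI: concentration producing complete growth inhibition.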
How the values were obtained:
Experiment in all cases: growth of human tumour cells (NCI), 48 h
786-0 renal = test system: 786-0 renal
A498 renal = test system: A498 renal
A549 NSCLC = test system: A549 NSCLC
ACHN renal = test system: ACHN renal
BT-549 breast = test system: BT-549 breast
CAKI-1 renal = test system: CAKI-1 renal
CCRF-CEM leukemia = test system: CCRF-CEM leukemia
COLO 205 colon = test system: COLO 205 colon
DU-145 prostate = test system: DU-145 prostate
HCC-2998 colon = test system: HCC-2998 colon
HCT-116 colon = test system: HCT-116 colon
HCT-15 colon = test system: HCT-15 colon
HL-60(TB) leukemia = test system: HL-60(TB) leukemia
HOP-62 NSCLC = test system: HOP-62 NSCLC
HOP-92 NSCLC = test system: HOP-92 NSCLC
HT29 colon = test system: HT29 colon
IGROV1 ovarian = test system: IGROV1 ovarian
KM12 colon = test system: KM12 colon
LOX IMVI melanoma = test system: LOX IMVI melanoma
M14 melanoma = test system: M14 melanoma
MALME-3M melanoma = test system: MALME-3M melanoma
MCF7 breast = test system: MCF7 breast
MDA-MB-231 breast = test system: MDA-MB-231 breast
MDA-MB-435 = test system: MDA-MB-435
MOLT-4 leukemia = test system: MOLT-4 leukemia
NCI-H226 lung = test system: NCI-H226 lung
NCI-H23 lung = test system: NCI-H23 lung
NCI-H322M lung = test system: NCI-H322M lung
NCI-H460 lung = test system: NCI-H460 lung
NCI-H522 lung = test system: NCI-H522 lung
NCI/ADR-RES ovarian = test system: NCI/ADR-RES ovarian
OVCAR-3 ovarian = test system: OVCAR-3 ovarian
OVCAR-4 ovarian = test system: OVCAR-4 ovarian
OVCAR-5 ovarian = test system: OVCAR-5 ovarian
OVCAR-8 ovarian = test system: OVCAR-8 ovarian
PC-3 prostate = test system: PC-3 prostate
RPMI-8226 leukemia = test system: RPMI-8226 leukemia
RXF 393 renal = test system: RXF 393 renal
SF-268 CNS = test system: SF-268 CNS
SF-295 CNS = test system: SF-295 CNS
SF-539 CNS = test system: SF-539 CNS
SK-MEL-2 melanoma = test system: SK-MEL-2 melanoma
SK-MEL-28 melanoma = test system: SK-MEL-28 melanoma
SK-MEL-5 melanoma = test system: SK-MEL-5 melanoma
SK-OV-3 ovarian = test system: SK-OV-3 ovarian
SN12C renal = test system: SN12C renal
SNB-19 CNS = test system: SNB-19 CNS
SNB-75 CNS = test system: SNB-75 CNS
SR leukemia = test system: SR leukemia
SW-620 colon = test system: SW-620 colon
T-47D breast = test system: T-47D breast
U251 CNS = test system: U251 CNS
UACC-257 melanoma = test system: UACC-257 melanoma
UACC-62 melanoma = test system: UACC-62 melanoma
UO-31 renal = test system: UO-31 renal

Q: For `COc1cccc([As]=O)c1` (stereo not given), which GI50 (786-0 renal) is on record?
A: 155 nM

Q: And the TGI (786-0 renal)?
A: 297 nM

Q: What about the GI50 (A498 renal) of the same molecule?
A: 118 nM

Q: And the TGI (A498 renal)?
A: 447 nM

Q: What about the GI50 (A549 NSCLC) of the same molecule?
A: 263 nM

Q: What about the TGI (A549 NSCLC) of the same molecule?
A: 771 nM

Q: What about the GI50 (ACHN renal) of the same molecule?
A: 177 nM

Q: And the TGI (ACHN renal)?
A: 338 nM

Q: What about the GI50 (BT-549 breast) of the same molecule?
A: 156 nM

Q: What about the TGI (BT-549 breast) of the same molecule?
A: 314 nM

Q: What about the GI50 (CAKI-1 renal) of the same molecule?
A: 290 nM

Q: And the TGI (CAKI-1 renal)?
A: 1080 nM

Q: What about the GI50 (CCRF-CEM leukemia) of the same molecule?
A: 116 nM

Q: And the TGI (CCRF-CEM leukemia)?
A: 388 nM

Q: And the GI50 (COLO 205 colon)?
A: 168 nM

Q: And the TGI (COLO 205 colon)?
A: 324 nM

Q: And the GI50 (DU-145 prostate)?
A: 312 nM

Q: What about the TGI (DU-145 prostate) of the same molecule?
A: 1080 nM

Q: And the GI50 (HCC-2998 colon)?
A: 300 nM

Q: And the TGI (HCC-2998 colon)?
A: 793 nM

Q: And the GI50 (HCT-116 colon)?
A: 171 nM

Q: And the TGI (HCT-116 colon)?
A: 338 nM

Q: What about the GI50 (HCT-15 colon) of the same molecule?
A: 131 nM

Q: What about the TGI (HCT-15 colon) of the same molecule?
A: 287 nM

Q: What about the GI50 (HL-60(TB) leukemia) of the same molecule?
A: 38.4 nM

Q: And the TGI (HL-60(TB) leukemia)?
A: 216 nM

Q: What about the GI50 (HOP-62 NSCLC) of the same molecule?
A: 205 nM

Q: What about the TGI (HOP-62 NSCLC) of the same molecule?
A: 425 nM

Q: And the GI50 (HOP-92 NSCLC)?
A: 86.7 nM

Q: What about the TGI (HOP-92 NSCLC) of the same molecule?
A: 489 nM

Q: And the GI50 (HT29 colon)?
A: 252 nM

Q: And the TGI (HT29 colon)?
A: 676 nM

Q: What about the GI50 (IGROV1 ovarian) of the same molecule?
A: 77.8 nM

Q: What about the TGI (IGROV1 ovarian) of the same molecule?
A: 233 nM

Q: What about the GI50 (KM12 colon) of the same molecule?
A: 347 nM

Q: And the TGI (KM12 colon)?
A: 882 nM

Q: What about the GI50 (LOX IMVI melanoma) of the same molecule?
A: 58.7 nM

Q: What about the TGI (LOX IMVI melanoma) of the same molecule?
A: 217 nM

Q: And the GI50 (M14 melanoma)?
A: 183 nM

Q: What about the TGI (M14 melanoma) of the same molecule?
A: 425 nM

Q: And the GI50 (MALME-3M melanoma)?
A: 95.3 nM

Q: What about the TGI (MALME-3M melanoma) of the same molecule?
A: 307 nM

Q: What about the GI50 (MCF7 breast) of the same molecule?
A: 124 nM

Q: What about the TGI (MCF7 breast) of the same molecule?
A: 266 nM

Q: What about the GI50 (MDA-MB-231 breast) of the same molecule?
A: 160 nM

Q: What about the TGI (MDA-MB-231 breast) of the same molecule?
A: 447 nM

Q: What about the GI50 (MDA-MB-435) of the same molecule?
A: 168 nM

Q: What about the TGI (MDA-MB-435) of the same molecule?
A: 339 nM

Q: What about the GI50 (MOLT-4 leukemia) of the same molecule?
A: 175 nM

Q: And the TGI (MOLT-4 leukemia)?
A: 513 nM

Q: What about the GI50 (NCI-H226 lung) of the same molecule?
A: 199 nM

Q: What about the TGI (NCI-H226 lung) of the same molecule?
A: 508 nM

Q: What about the GI50 (NCI-H23 lung) of the same molecule?
A: 162 nM

Q: And the TGI (NCI-H23 lung)?
A: 369 nM

Q: What about the GI50 (NCI-H322M lung) of the same molecule?
A: 220 nM

Q: What about the TGI (NCI-H322M lung) of the same molecule?
A: 525 nM

Q: What about the GI50 (NCI-H460 lung) of the same molecule?
A: 432 nM

Q: And the TGI (NCI-H460 lung)?
A: 1420 nM

Q: And the GI50 (NCI-H522 lung)?
A: 92.1 nM

Q: What about the TGI (NCI-H522 lung) of the same molecule?
A: 248 nM

Q: And the GI50 (NCI/ADR-RES ovarian)?
A: 237 nM

Q: What about the TGI (NCI/ADR-RES ovarian) of the same molecule?
A: 643 nM

Q: What about the GI50 (OVCAR-3 ovarian) of the same molecule?
A: 137 nM

Q: And the TGI (OVCAR-3 ovarian)?
A: 278 nM

Q: And the GI50 (OVCAR-4 ovarian)?
A: 145 nM

Q: What about the TGI (OVCAR-4 ovarian) of the same molecule?
A: 311 nM

Q: What about the GI50 (OVCAR-5 ovarian) of the same molecule?
A: 210 nM

Q: What about the TGI (OVCAR-5 ovarian) of the same molecule?
A: 507 nM

Q: What about the GI50 (OVCAR-8 ovarian) of the same molecule?
A: 237 nM

Q: What about the TGI (OVCAR-8 ovarian) of the same molecule?
A: 705 nM

Q: What about the GI50 (PC-3 prostate) of the same molecule?
A: 183 nM

Q: And the TGI (PC-3 prostate)?
A: 627 nM

Q: What about the GI50 (RPMI-8226 leukemia) of the same molecule?
A: 164 nM

Q: And the TGI (RPMI-8226 leukemia)?
A: 441 nM

Q: What about the GI50 (RXF 393 renal) of the same molecule?
A: 126 nM

Q: What about the TGI (RXF 393 renal) of the same molecule?
A: 275 nM

Q: And the GI50 (SF-268 CNS)?
A: 210 nM

Q: And the TGI (SF-268 CNS)?
A: 714 nM

Q: What about the GI50 (SF-295 CNS) of the same molecule?
A: 583 nM

Q: What about the TGI (SF-295 CNS) of the same molecule?
A: 1620 nM

Q: And the GI50 (SF-539 CNS)?
A: 162 nM

Q: And the TGI (SF-539 CNS)?
A: 366 nM

Q: What about the GI50 (SK-MEL-2 melanoma) of the same molecule?
A: 151 nM

Q: What about the TGI (SK-MEL-2 melanoma) of the same molecule?
A: 346 nM

Q: And the GI50 (SK-MEL-28 melanoma)?
A: 162 nM

Q: And the TGI (SK-MEL-28 melanoma)?
A: 309 nM

Q: What about the GI50 (SK-MEL-5 melanoma) of the same molecule?
A: 181 nM

Q: And the TGI (SK-MEL-5 melanoma)?
A: 380 nM

Q: And the GI50 (SK-OV-3 ovarian)?
A: 388 nM

Q: What about the TGI (SK-OV-3 ovarian) of the same molecule?
A: 1250 nM

Q: And the GI50 (SN12C renal)?
A: 210 nM

Q: What about the TGI (SN12C renal) of the same molecule?
A: 730 nM

Q: And the GI50 (SNB-19 CNS)?
A: 466 nM

Q: What about the TGI (SNB-19 CNS) of the same molecule?
A: 1510 nM

Q: And the GI50 (SNB-75 CNS)?
A: 117 nM

Q: What about the TGI (SNB-75 CNS) of the same molecule?
A: 317 nM

Q: And the GI50 (SR leukemia)?
A: 86.2 nM

Q: What about the TGI (SR leukemia) of the same molecule?
A: 340 nM

Q: And the GI50 (SW-620 colon)?
A: 121 nM

Q: What about the TGI (SW-620 colon) of the same molecule?
A: 285 nM

Q: What about the GI50 (T-47D breast) of the same molecule?
A: 82.2 nM

Q: And the TGI (T-47D breast)?
A: 233 nM

Q: And the GI50 (U251 CNS)?
A: 133 nM

Q: And the TGI (U251 CNS)?
A: 267 nM

Q: And the GI50 (UACC-257 melanoma)?
A: 203 nM

Q: And the TGI (UACC-257 melanoma)?
A: 584 nM

Q: And the GI50 (UACC-62 melanoma)?
A: 189 nM

Q: What about the TGI (UACC-62 melanoma) of the same molecule?
A: 497 nM

Q: And the GI50 (UO-31 renal)?
A: 116 nM

Q: And the TGI (UO-31 renal)?
A: 322 nM
